Laboratory results taken from publication PMC2172130.

The chains behind the UniProt entries cited, without tags or fusion partners. Where a name states a change or a piece, a line headed by the entry shows the natural chain unless it says otherwise.
UniProt Q9WU70: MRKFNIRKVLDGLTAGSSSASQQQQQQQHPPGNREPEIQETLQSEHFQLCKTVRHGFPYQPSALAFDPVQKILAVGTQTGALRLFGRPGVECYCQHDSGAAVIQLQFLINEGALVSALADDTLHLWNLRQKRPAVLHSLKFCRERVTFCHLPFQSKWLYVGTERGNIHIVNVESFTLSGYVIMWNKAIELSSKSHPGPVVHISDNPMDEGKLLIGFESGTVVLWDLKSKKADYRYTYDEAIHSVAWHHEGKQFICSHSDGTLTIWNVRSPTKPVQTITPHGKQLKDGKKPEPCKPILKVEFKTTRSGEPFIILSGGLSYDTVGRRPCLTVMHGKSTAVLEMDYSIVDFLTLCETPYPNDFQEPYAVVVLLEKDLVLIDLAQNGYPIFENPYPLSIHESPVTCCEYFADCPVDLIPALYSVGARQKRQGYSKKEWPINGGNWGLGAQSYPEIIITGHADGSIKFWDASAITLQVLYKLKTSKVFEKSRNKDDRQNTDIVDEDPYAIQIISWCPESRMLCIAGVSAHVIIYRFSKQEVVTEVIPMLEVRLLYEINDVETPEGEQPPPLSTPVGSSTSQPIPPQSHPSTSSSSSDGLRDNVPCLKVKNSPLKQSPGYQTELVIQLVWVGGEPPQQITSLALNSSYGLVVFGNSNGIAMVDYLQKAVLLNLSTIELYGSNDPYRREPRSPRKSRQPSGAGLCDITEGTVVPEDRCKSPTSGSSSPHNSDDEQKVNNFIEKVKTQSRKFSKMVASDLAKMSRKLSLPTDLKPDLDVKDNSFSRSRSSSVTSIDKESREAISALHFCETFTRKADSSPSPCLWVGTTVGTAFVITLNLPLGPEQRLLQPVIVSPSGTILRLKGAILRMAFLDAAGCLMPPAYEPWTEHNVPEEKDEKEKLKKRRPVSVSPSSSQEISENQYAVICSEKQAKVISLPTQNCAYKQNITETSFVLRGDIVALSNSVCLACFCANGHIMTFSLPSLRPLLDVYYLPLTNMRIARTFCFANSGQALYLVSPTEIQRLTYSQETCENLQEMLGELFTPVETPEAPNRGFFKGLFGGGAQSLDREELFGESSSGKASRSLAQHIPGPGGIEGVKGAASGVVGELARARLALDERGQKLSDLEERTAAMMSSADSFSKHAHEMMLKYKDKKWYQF

Molecular target: tomosyn (expressed in Sf9 cells) (UniProt Q9WU70)
Assay: far-Western, overlay or dot blot

syntaxin-1, phosphorylated by ROCK (recombinant) (from UniProt P32851 1-288) (natural protein)
Kd: 10 nM
